This assay has as its target T1, Kv2.1 channel (Rattus norvegicus, UniProt P15387).
T1 construct: expressed in transfected cells; host or cells: Xenopus laevis oocytes, cRNA injection
T1 sequence (P15387 1-857): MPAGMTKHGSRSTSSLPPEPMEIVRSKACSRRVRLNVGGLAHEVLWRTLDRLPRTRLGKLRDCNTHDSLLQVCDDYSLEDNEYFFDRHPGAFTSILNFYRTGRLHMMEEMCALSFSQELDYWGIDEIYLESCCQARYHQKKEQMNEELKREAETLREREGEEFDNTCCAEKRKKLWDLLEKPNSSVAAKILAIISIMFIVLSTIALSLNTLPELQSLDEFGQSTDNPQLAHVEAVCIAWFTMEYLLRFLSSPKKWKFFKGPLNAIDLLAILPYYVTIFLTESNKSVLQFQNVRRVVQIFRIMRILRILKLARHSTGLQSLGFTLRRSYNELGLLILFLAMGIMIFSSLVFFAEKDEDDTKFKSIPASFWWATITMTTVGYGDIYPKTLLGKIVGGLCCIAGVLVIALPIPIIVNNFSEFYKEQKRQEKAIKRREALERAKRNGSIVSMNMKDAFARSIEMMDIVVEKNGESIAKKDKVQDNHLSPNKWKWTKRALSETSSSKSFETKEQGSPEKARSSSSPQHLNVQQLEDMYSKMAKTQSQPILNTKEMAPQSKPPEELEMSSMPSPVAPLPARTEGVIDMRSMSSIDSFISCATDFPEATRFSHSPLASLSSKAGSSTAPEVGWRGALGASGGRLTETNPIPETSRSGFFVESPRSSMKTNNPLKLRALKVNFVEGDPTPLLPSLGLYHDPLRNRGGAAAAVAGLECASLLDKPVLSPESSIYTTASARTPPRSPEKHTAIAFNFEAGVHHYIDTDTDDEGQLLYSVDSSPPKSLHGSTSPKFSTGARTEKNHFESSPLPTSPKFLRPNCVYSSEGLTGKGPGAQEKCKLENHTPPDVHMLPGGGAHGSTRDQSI
In words: Inhibition of Kv2.1 channel currents in Xenopus oocytes (two-electrode voltage clamp), apparent affinity. The following applies: Kv2.1 in oocytes; for ∆∆G (perturbation energy): from apparent Kd of mutant vs GxTx-1E(Nle); for Kd^mut/Kd^wt: ratio of apparent Kd of mutant to GxTx-1E(Nle). It counts as cell-based.

This note sets out measurements from paper PMC4423116, “Tarantula toxins use common surfaces for interacting with Kv and ASIC ion channels” (eLife, 2015).

`CCCC[C@H](NC(=O)[C@@H]1CCCN1C(=O)[C@H](Cc1ccccc1)NC(=O)[C@H](CC(N)=O)NC(=O)[C@@H]1CSSC[C@@H]2NC(=O)[C@H](C)NC(=O)[C@@H]3CCCN3C(=O)[C@H](CCCCN)NC(=O)CNC(=O)[C@H](CO)NC(=O)CNC(=O)[C@@H]3CSSC[C@H](NC(=O)[C@H](C(C)C)NC(=O)[C@H](Cc4ccc(O)cc4)NC(=O)[C@H](CCCCN)NC(=O)[C@H](C)NC(=O)[C@H](CSSC[C@H](NC(=O)[C@H](CCC(=O)O)NC(=O)CNC(=O)[C@@H](N)CCC(=O)O)C(=O)NCC(=O)NCC(=O)N[C@@H](Cc4ccccc4)C(=O)N[C@@H](Cc4c[nH]c5ccccc45)C(=O)N[C@@H](Cc4c[nH]c5ccccc45)C(=O)N[C@@H](CCCCN)C(=O)N3)NC2=O)C(=O)N[C@@H](CO)C(=O)N2CCC[C@H]2C(=O)N[C@@H](CCCCN)C(=O)N[C@@H](Cc2c[nH]c3ccccc23)C(=O)NCC(=O)N[C@@H](CC(C)C)C(=O)N1)C(=O)N1CCC[C@H]1C(=O)O` [Toxin P20A]: the “∆∆G (perturbation energy)” value was 0.63 kcal/mol and the “Kd^mut/Kd^wt” value turned out to be 2.9.

As for `CCCC[C@H](NC(=O)[C@@H]1CCCN1C(=O)[C@H](Cc1ccccc1)NC(=O)[C@H](CC(N)=O)NC(=O)[C@@H]1CSSC[C@@H]2NC(=O)[C@H](C)NC(=O)[C@@H]3CCCN3C(=O)[C@H](CCCCN)NC(=O)CNC(=O)[C@H](CO)NC(=O)CNC(=O)[C@@H]3CSSC[C@H](NC(=O)[C@H](C(C)C)NC(=O)[C@H](Cc4ccc(O)cc4)NC(=O)[C@H](CCCCN)NC(=O)[C@@H]4CCCN4C(=O)[C@H](CSSC[C@H](NC(=O)[C@H](CCC(=O)O)NC(=O)CNC(=O)[C@@H](N)CCC(=O)O)C(=O)NCC(=O)NCC(=O)N[C@@H](Cc4ccccc4)C(=O)N[C@@H](Cc4c[nH]c5ccccc45)C(=O)N[C@@H](Cc4c[nH]c5ccccc45)C(=O)N[C@@H](CCCCN)C(=O)N3)NC2=O)C(=O)N[C@@H](CO)C(=O)N[C@@H](C)C(=O)N[C@@H](CCCCN)C(=O)N[C@@H](Cc2c[nH]c3ccccc23)C(=O)NCC(=O)N[C@@H](CC(C)C)C(=O)N1)C(=O)N1CCC[C@H]1C(=O)O` [Toxin P26A], the “∆∆G (perturbation energy)” value was 0.76 kcal/mol and the “Kd^mut/Kd^wt” value was 3.6.

For `CCCC[C@H](NC(=O)[C@@H]1CCCN1C(=O)[C@H](Cc1ccccc1)NC(=O)[C@H](CC(N)=O)NC(=O)[C@@H]1CSSC[C@@H]2NC(=O)[C@H](C)NC(=O)[C@@H]3CCCN3C(=O)[C@H](CCCCN)NC(=O)CNC(=O)[C@H](CO)NC(=O)CNC(=O)[C@@H]3CSSC[C@H](NC(=O)[C@H](C)NC(=O)[C@H](Cc4ccc(O)cc4)NC(=O)[C@H](CCCCN)NC(=O)[C@@H]4CCCN4C(=O)[C@H](CSSC[C@H](NC(=O)[C@H](CCC(=O)O)NC(=O)CNC(=O)[C@@H](N)CCC(=O)O)C(=O)NCC(=O)NCC(=O)N[C@@H](Cc4ccccc4)C(=O)N[C@@H](Cc4c[nH]c5ccccc45)C(=O)N[C@@H](Cc4c[nH]c5ccccc45)C(=O)N[C@@H](CCCCN)C(=O)N3)NC2=O)C(=O)N[C@@H](CO)C(=O)N2CCC[C@H]2C(=O)N[C@@H](CCCCN)C(=O)N[C@@H](Cc2c[nH]c3ccccc23)C(=O)NCC(=O)N[C@@H](CC(C)C)C(=O)N1)C(=O)N1CCC[C@H]1C(=O)O` [Toxin V23A], the “∆∆G (perturbation energy)” value came to 0.50 kcal/mol and the “Kd^mut/Kd^wt” value came to 2.3.

On to `CCCC[C@H](NC(=O)[C@@H]1CCCN1C(=O)[C@H](Cc1ccccc1)NC(=O)[C@H](CC(N)=O)NC(=O)[C@@H]1CSSC[C@@H]2NC(=O)[C@H](C)NC(=O)[C@@H]3CCCN3C(=O)[C@H](CCCCN)NC(=O)CNC(=O)[C@H](CO)NC(=O)CNC(=O)[C@@H]3CSSC[C@H](NC(=O)[C@H](C(C)C)NC(=O)[C@H](Cc4ccc(O)cc4)NC(=O)[C@H](CCCCN)NC(=O)[C@@H]4CCCN4C(=O)[C@H](CSSC[C@H](NC(=O)[C@H](CCC(=O)O)NC(=O)CNC(=O)[C@@H](N)CCC(=O)O)C(=O)NCC(=O)NCC(=O)N[C@@H](Cc4ccccc4)C(=O)N[C@@H](Cc4c[nH]c5ccccc45)C(=O)N[C@@H](Cc4c[nH]c5ccccc45)C(=O)N[C@@H](CCCCN)C(=O)N3)NC2=O)C(=O)N[C@@H](CO)C(=O)N2CCC[C@H]2C(=O)N[C@@H](CCCCN)C(=O)N[C@@H](Cc2c[nH]c3ccccc23)C(=O)NCC(=O)N[C@@H](C)C(=O)N1)C(=O)N1CCC[C@H]1C(=O)O` [Toxin L30A], for which the “∆∆G (perturbation energy)” value came to 1.42 kcal/mol and the “Kd^mut/Kd^wt” value is listed as 11.0.

For the molecule `CCCC[C@H](NC(=O)[C@@H]1CCCN1C(=O)[C@H](Cc1ccccc1)NC(=O)[C@H](CC(N)=O)NC(=O)[C@@H]1CSSC[C@@H]2NC(=O)[C@H](C)NC(=O)[C@@H]3CCCN3C(=O)[C@H](CCCCN)NC(=O)CNC(=O)[C@H](CO)NC(=O)CNC(=O)[C@@H]3CSSC[C@H](NC(=O)[C@H](C(C)C)NC(=O)[C@H](Cc4ccc(O)cc4)NC(=O)[C@H](CCCCN)NC(=O)[C@@H]4CCCN4C(=O)[C@H](CSSC[C@H](NC(=O)[C@H](C)NC(=O)CNC(=O)[C@@H](N)CCC(=O)O)C(=O)NCC(=O)NCC(=O)N[C@@H](Cc4ccccc4)C(=O)N[C@@H](Cc4c[nH]c5ccccc45)C(=O)N[C@@H](Cc4c[nH]c5ccccc45)C(=O)N[C@@H](CCCCN)C(=O)N3)NC2=O)C(=O)N[C@@H](CO)C(=O)N2CCC[C@H]2C(=O)N[C@@H](CCCCN)C(=O)N[C@@H](Cc2c[nH]c3ccccc23)C(=O)NCC(=O)N[C@@H](CC(C)C)C(=O)N1)C(=O)N1CCC[C@H]1C(=O)O` [Toxin E3A], the “∆∆G (perturbation energy)” value is -0.35 kcal/mol.

For the molecule `CCCC[C@H](NC(=O)[C@H](C)NC(=O)[C@H](Cc1ccccc1)NC(=O)[C@H](CC(N)=O)NC(=O)[C@@H]1CSSC[C@@H]2NC(=O)[C@H](C)NC(=O)[C@@H]3CCCN3C(=O)[C@H](CCCCN)NC(=O)CNC(=O)[C@H](CO)NC(=O)CNC(=O)[C@@H]3CSSC[C@H](NC(=O)[C@H](C(C)C)NC(=O)[C@H](Cc4ccc(O)cc4)NC(=O)[C@H](CCCCN)NC(=O)[C@@H]4CCCN4C(=O)[C@H](CSSC[C@H](NC(=O)[C@H](CCC(=O)O)NC(=O)CNC(=O)[C@@H](N)CCC(=O)O)C(=O)NCC(=O)NCC(=O)N[C@@H](Cc4ccccc4)C(=O)N[C@@H](Cc4c[nH]c5ccccc45)C(=O)N[C@@H](Cc4c[nH]c5ccccc45)C(=O)N[C@@H](CCCCN)C(=O)N3)NC2=O)C(=O)N[C@@H](CO)C(=O)N2CCC[C@H]2C(=O)N[C@@H](CCCCN)C(=O)N[C@@H](Cc2c[nH]c3ccccc23)C(=O)NCC(=O)N[C@@H](CC(C)C)C(=O)N1)C(=O)N1CCC[C@H]1C(=O)O` [Toxin P34A], the “∆∆G (perturbation energy)” value was 0.26 kcal/mol and the “Kd^mut/Kd^wt” value amounted to 1.6.

`CCCC[C@H](NC(=O)[C@@H]1CCCN1C(=O)[C@H](Cc1ccccc1)NC(=O)[C@H](CC(N)=O)NC(=O)[C@@H]1CSSC[C@@H]2NC(=O)[C@H](C)NC(=O)[C@H](C)NC(=O)[C@H](CCCCN)NC(=O)CNC(=O)[C@H](CO)NC(=O)CNC(=O)[C@@H]3CSSC[C@H](NC(=O)[C@H](C(C)C)NC(=O)[C@H](Cc4ccc(O)cc4)NC(=O)[C@H](CCCCN)NC(=O)[C@@H]4CCCN4C(=O)[C@H](CSSC[C@H](NC(=O)[C@H](CCC(=O)O)NC(=O)CNC(=O)[C@@H](N)CCC(=O)O)C(=O)NCC(=O)NCC(=O)N[C@@H](Cc4ccccc4)C(=O)N[C@@H](Cc4c[nH]c5ccccc45)C(=O)N[C@@H](Cc4c[nH]c5ccccc45)C(=O)N[C@@H](CCCCN)C(=O)N3)NC2=O)C(=O)N[C@@H](CO)C(=O)N2CCC[C@H]2C(=O)N[C@@H](CCCCN)C(=O)N[C@@H](Cc2c[nH]c3ccccc23)C(=O)NCC(=O)N[C@@H](CC(C)C)C(=O)N1)C(=O)N1CCC[C@H]1C(=O)O` [Toxin P16A]: the “∆∆G (perturbation energy)” value amounted to 2.75 kcal/mol and the “Kd^mut/Kd^wt” value came out at 102.5.

Regarding `CCCC[C@H](NC(=O)[C@@H]1CCCN1C(=O)[C@H](Cc1ccccc1)NC(=O)[C@H](CC(N)=O)NC(=O)[C@@H]1CSSC[C@@H]2NC(=O)[C@H](C)NC(=O)[C@@H]3CCCN3C(=O)[C@H](CCCCN)NC(=O)CNC(=O)[C@H](CO)NC(=O)CNC(=O)[C@@H]3CSSC[C@H](NC(=O)[C@H](C(C)C)NC(=O)[C@H](Cc4ccc(O)cc4)NC(=O)[C@H](CCCCN)NC(=O)[C@@H]4CCCN4C(=O)[C@H](CSSC[C@H](NC(=O)[C@H](CCC(=O)O)NC(=O)CNC(=O)[C@@H](N)CCC(=O)O)C(=O)N[C@@H](C)C(=O)NCC(=O)N[C@@H](Cc4ccccc4)C(=O)N[C@@H](Cc4c[nH]c5ccccc45)C(=O)N[C@@H](Cc4c[nH]c5ccccc45)C(=O)N[C@@H](CCCCN)C(=O)N3)NC2=O)C(=O)N[C@@H](CO)C(=O)N2CCC[C@H]2C(=O)N[C@@H](CCCCN)C(=O)N[C@@H](Cc2c[nH]c3ccccc23)C(=O)NCC(=O)N[C@@H](CC(C)C)C(=O)N1)C(=O)N1CCC[C@H]1C(=O)O` [Toxin G5A], the “∆∆G (perturbation energy)” value came to 2.44 kcal/mol.
